Data: article PMC9287160

Target: biotinylated iC3b (UniProt P01024)
Assay: SPR; biotinylated iC3b on a streptavidin chip (Biacore T200); αMβ2 HP 1.25-100 nM injected with or without a 1.5-fold molar excess of hCD11bNb1; 20 mM Hepes pH 7.5, 150 mM NaCl, 5 mM MgCl2, 1 mM CaCl2

Substance “human integrin αMβ2 headpiece fragment (from UniProt P11215 17-1152; P05107 23-482) (complex)” has a Kd of 30 nM.
